scFv variants of Ab-14 (light chain) against a SARS-CoV-2 spike peptide

Values reported by Li et al. 2023, doi:10.1038/s41467-023-39022-2 (FLAb copy).

Antigen: PDVDLGDISGINAS, a 14-residue peptide of the SARS-CoV-2 spike HR2 region.

Ab-14 is the parent antibody, in scFv form: VH, then the linker GGGGSGGGGSGGGGS, then VL. The heavy chain is unchanged in all variants.
VH: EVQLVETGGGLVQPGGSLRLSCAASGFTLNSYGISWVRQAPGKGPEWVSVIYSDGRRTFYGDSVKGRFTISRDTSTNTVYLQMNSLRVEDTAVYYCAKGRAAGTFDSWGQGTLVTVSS
VL: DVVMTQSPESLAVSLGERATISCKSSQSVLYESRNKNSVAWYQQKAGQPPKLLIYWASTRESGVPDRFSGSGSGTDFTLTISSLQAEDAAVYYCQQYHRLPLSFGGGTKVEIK

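Phage display of a naive human antibody library on the peptide gave the parent. The variants were designed computationally from a first round of random CDR variants and then made and measured. Several design methods are mixed in this list. Affinity was read by AlphaSeq, a pooled yeast mating assay with surface-displayed partners. The frequency of each diploid, read from paired DNA barcodes, reflects how well the two displayed proteins bind. A regression on co-assayed BCL2-family reference pairs converts the normalised counts of each replicate to an apparent Kd. Mating was done six times.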

Variants are written as CDR1, CDR2 and CDR3 of the light chain (limits as in the source). Parent: KSSQSVLYESRNKNSVA, WASTRES, QQYHRLPLS.
Variants here have more than six changes.
Each Kd is an estimate from the mating assay, the geometric mean of the replicates in which the pair was seen; lower is stronger.
An entry "nd" has no value in the source: the pair was not observed among the diploids in any replicate. This suggests poor binding but is not conclusive.

- FMQMQNDRMTDAAKNIA | DVDMRET | QQYARLPFM: 14 nM (6 of 6 replicates)
- MLSQMWALGMKVKNSVA | QASMRFN | QQYDRLPLI: 8.9 nM (5 of 6 replicates)
- KLYQSQLYLSRNMNAVA | NASQRMS | QQYHRLPLS: 430 pM (6 of 6 replicates)
- HISDLIMVASRNRNSVA | DESARPD | QQYHRLPLS: 3.5 nM (6 of 6 replicates)
- RINIAGMTVDEHYSNVA | AQHLTSE | QQYFRLPLA: 16 nM (6 of 6 replicates)
- TLAQGIYEGVRKSENVA | EASHVTD | QQYERLPLE: 5.1 nM (6 of 6 replicates)
- MMTMGSLGGMRARNNVA | QEETRVK | QQYHRLPLI: 28 nM (6 of 6 replicates)
- KISQMIRVGSTHSNSIA | EEQTRAK | QQYHRLPLA: 8.5 nM (6 of 6 replicates)
- TISELYNQALGIRNNVA | NNQTRED | QQYARLPLS: 22 nM (5 of 6 replicates)
- MMSQMIEGLSTSKNPVA | QVSTREE | QQYHRLPLS: 7.9 nM (6 of 6 replicates)
- HVEHAWLLSNATMNAVA | NGATLAD | QQYFRLPLA: 3.2 nM (6 of 6 replicates)
- NITQQGDAMGDQRNNVA | NGETLEH | QQYAHLPLL: 9.9 nM (6 of 6 replicates)
- MIHESYGLMSVKQSSIA | DNSTREE | QQYDRLPLS: 8.1 nM (6 of 6 replicates)
- KLDMWQLGGSRNKNSVA | SASTRCS | QQYHRLPLS: 4.5 nM (6 of 6 replicates)
- ALGDVTRMEQNKKNSIA | DMSNRES | QQYHRLPLS: 1.1 nM (6 of 6 replicates)
- TISQSAQMESHNKNSVA | DLNLRGN | QQYDRLPLS: 4.7 nM (6 of 6 replicates)
- KLSPSWWYESRNKANVA | HASTRES | QQYHRLPLS: 1.3 nM (6 of 6 replicates)
- TISQSTYWESFNKNSVA | QTSTREE | QDYDRLPLS: nd (0 of 6 replicates)
- KLSQITGHMSMSKDNVA | EMETREN | QQYDRLPLS: 250 nM (6 of 6 replicates)
- KIGATLNQLMHKKNNVA | DLVTREN | QQYGRLPLS: 4.1 nM (6 of 6 replicates)
- KLSMSEWMGSRNKNSVA | SANTREE | QQYHRLPLS: 1.6 nM (6 of 6 replicates)
- MFSQSVMTGSFMRNSVA | QTTTREN | QQYDRLPLS: 7.1 nM (6 of 6 replicates)
- KVYCGVDYEDRNKNSVA | HASQRES | QQYHRLPLS: 1.3 nM (6 of 6 replicates)
- MISQLFMYGSRNVNSVA | QASTRES | QQYDRLPLI: 13 nM (6 of 6 replicates)
- MITAVMNAYNGSFSSIA | DKTISVN | QQYHRLPLS: 130 nM (4 of 6 replicates)
- KLRESIHVESKQKNNVA | DNSTREY | QDYHRLPLS: 170 nM (5 of 6 replicates)
- SVTNETDGNGLKWNSVA | DAEELMT | QDYFRLPIT: 80 nM (6 of 6 replicates)
- KLSMTHGMETKNRNSVA | ELVTRMS | QQYNRLPLS: 4.3 nM (6 of 6 replicates)
- MVQQLYNMGSFAINSVA | QASTRNE | QQYDRLPLM: 9.9 nM (6 of 6 replicates)
- KWSQSDDLESRNHNSVA | HASTRCS | QQYHRLPLS: 1.9 nM (6 of 6 replicates)
- KLVQFMNRGTHHTSNIA | DAQNRTD | QQYARLPLA: 20 nM (6 of 6 replicates)
- HVELGTWGVQKYDSSVA | HASQRQE | QQYYQLPLT: 1.0 nM (6 of 6 replicates)
- KLDMYYWLESRNKNSVA | QASTREW | QQYHRLPLS: 2.7 nM (6 of 6 replicates)
- EISILGESVTGHYSNVA | EQHVTEM | QQYFRLPLS: nd (0 of 6 replicates)
- KLQSEALGGNQSTSSVA | GNSVAMP | QQYERLPLD: 1.1 µM (2 of 6 replicates)
- KISTLTLYESVNKNSVA | EMSTRPS | QSYHRLPLS: 8.4 nM (6 of 6 replicates)
- IIDQIMYHGNKRANSIA | QASERLN | QQYHHLPLD: 360 nM (2 of 6 replicates)
- NITESMYYQSRNKNNIA | EMSTRER | QHYHRLPLS: 1.3 nM (6 of 6 replicates)
- QLGKQSQGLMVSNQSVA | NEEMRAK | QQYFRLPFI: 10 nM (6 of 6 replicates)
- KLSMSYRYETEEKNSIA | ELVTRAS | QQYHRLPLS: 5.7 nM (6 of 6 replicates)
- VFQQQWDGNTLTNSSVA | NVDERME | QQYNRLPLM: 640 nM (3 of 6 replicates)
- NVGQLMDGETRNKNSVA | HQSTRED | QHYHRLPLS: 16 nM (6 of 6 replicates)
- NVKAMLNMWARDIHNVA | EADERAS | QQYSRLPLG: 2.0 nM (6 of 6 replicates)

Background: pairings of all light chain designs with three empty control strains gave a value in 4% of cases (median 430 nM, 5th percentile 38 nM). Values in that range, when seen in few replicates, are hard to tell from nonspecific mating.
A sequence measured in both rounds can read differently, since the two assays cover different ranges.
The authors averaged sequences with at least three values out of six and counted those with two or fewer as poor binders.
Of ten entries with the parent sequence, four were seen in most replicates (averages 2.2 nM to 240 nM), three in one and three in none, so single entries are noisy.